In this assay the target is T1, human CTLA4 on CHO-K1/hCTLA4 cells (human, UniProt P16410, in part).
T1 construct: whole, on cells; CHO-K1 cell line highly expressing human CTLA4; also called human CTLA4 cell
The experiment in a line: flow cytometry on CHO-K1/hCTLA4 cells, Experiment 2. For orientation: A flow cytometer gives signals particle by particle.

The chains behind the UniProt entries cited, without tags or fusion partners. Residues count along the entry.
UniProt P16410, 36-223: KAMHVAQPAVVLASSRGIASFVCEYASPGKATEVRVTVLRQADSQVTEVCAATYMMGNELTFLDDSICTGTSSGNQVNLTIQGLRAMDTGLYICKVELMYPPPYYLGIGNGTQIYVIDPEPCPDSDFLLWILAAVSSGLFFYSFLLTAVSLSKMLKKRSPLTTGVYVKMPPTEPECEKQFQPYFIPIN

B1: HER2xCTLA4 bispecific antibody molecule PR001585 (bispecific antibody, human IgG1, kappa)
light: EVQLVESGGGLIQPGGSLRLSCAVSGFTVSKNYMSWVRQAPGKGLEWVSVVYSGGSKTYADSVKGRFTISRDNSKNTLYLQMNSLRAEDTAVYYCARAVPHSPSSFDIWGQGTMVTVSSKLEPKSSDKTHTPPPPPAS[about 200 residues not given here]
heavy: EVQLVESGGGLIQPGGSLRLSCAVSGFTVSKNYMSWVRQAPGKGLEWVSVVYSGGSKTYADSVKGRFTISRDNSKNTLYLQMNSLRAEDTAVYYCARAVPHSPSSFDIWGQGTMVTVSSKLEPKSSDKTHTPPPPPRT[about 450 residues with a human IgG1 Fc not given here]
notes: Structure 9 2xVH-IgG(HC+LC) (hexavalent symmetric); PR000210 IgG, PR000184 VH; first linker KL-H1_15-AS, second linker KL-H1_15-RT; Fc human IgG1
Usually EC50 stands for the concentration at which the effect is half-maximal. For B1, the EC50 turned out to be 1.58 nM and the “Maximum MFI” value came out at 1050 MFI.

B2: HER2xCTLA4 bispecific antibody molecule PR001587 (bispecific antibody, human IgG1, kappa)
light: EVQLVESGGGLIQPGGSLRLSCAVSGFTVSKNYMSWVRQAPGKGLEWVSVVYSGGSKTYADSVKGRFTISRDNSKNTLYLQMNSLRAEDTAVYYCARAVPHSPSSFDIWGQGTMVTVSSKLEPKSSDKTHTPPPPPAS[about 200 residues not given here]
heavy: EVQLVESGGGLIQPGGSLRLSCAVSGFTVSKNYMSWVRQAPGKGLEWVSVVYSGGSKTYADSVKGRFTISRDNSKNTLYLQMNSLRAEDTAVYYCARAVPHSPSSFDIWGQGTMVTVSSKLEPKSSDKTHTPPPPPRT[about 120 residues not given here][about 100 residues not given here][human IgG1 Fc with changes not given here]
notes: Structure 9 2xVH-IgG; PR000210 IgG, PR000184 VH; first linker KL-H1_15-AS, second linker KL-H1_15-RT; Fc human IgG1 (S239D, I332E)
For the molecule B2, a half-maximal response (EC50) required 1.72 nM and the “Maximum MFI” value came to 1040 MFI.
